# From patent publication EP4834897A1, “COMPOUNDS WITH TWO AZAHETEROCYCLES SUBSTITUTED ISOINDOLINONE SKELETON AND USES THEREOF” (dated 2026)
# The chains behind the UniProt entries cited, without tags or fusion partners.
# UniProt P15170, whole entry: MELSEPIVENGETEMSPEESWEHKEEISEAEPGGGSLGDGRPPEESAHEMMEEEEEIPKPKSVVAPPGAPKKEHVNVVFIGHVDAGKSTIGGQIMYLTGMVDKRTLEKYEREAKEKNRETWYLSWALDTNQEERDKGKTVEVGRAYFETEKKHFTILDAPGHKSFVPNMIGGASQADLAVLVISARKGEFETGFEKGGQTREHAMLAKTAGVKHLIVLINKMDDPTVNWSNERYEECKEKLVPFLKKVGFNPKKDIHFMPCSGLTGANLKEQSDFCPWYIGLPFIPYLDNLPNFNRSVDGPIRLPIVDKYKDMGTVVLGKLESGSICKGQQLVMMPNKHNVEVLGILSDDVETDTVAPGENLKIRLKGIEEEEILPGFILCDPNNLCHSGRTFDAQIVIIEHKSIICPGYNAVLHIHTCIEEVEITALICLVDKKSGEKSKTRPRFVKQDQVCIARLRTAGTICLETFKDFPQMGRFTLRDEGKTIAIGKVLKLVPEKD
# UniProt Q96SW2, whole entry: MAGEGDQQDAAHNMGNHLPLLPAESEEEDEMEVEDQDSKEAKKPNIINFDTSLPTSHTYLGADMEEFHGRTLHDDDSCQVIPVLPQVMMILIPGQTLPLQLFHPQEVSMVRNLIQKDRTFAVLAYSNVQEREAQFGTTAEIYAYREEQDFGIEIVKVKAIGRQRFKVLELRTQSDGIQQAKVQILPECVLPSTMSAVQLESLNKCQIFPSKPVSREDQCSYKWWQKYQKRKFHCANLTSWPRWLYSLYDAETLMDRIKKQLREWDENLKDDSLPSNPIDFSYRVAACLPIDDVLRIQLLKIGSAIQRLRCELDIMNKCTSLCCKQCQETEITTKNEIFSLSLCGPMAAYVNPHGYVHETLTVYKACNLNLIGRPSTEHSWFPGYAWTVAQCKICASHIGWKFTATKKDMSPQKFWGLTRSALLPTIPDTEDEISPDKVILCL
# UniProt Q13422, whole entry: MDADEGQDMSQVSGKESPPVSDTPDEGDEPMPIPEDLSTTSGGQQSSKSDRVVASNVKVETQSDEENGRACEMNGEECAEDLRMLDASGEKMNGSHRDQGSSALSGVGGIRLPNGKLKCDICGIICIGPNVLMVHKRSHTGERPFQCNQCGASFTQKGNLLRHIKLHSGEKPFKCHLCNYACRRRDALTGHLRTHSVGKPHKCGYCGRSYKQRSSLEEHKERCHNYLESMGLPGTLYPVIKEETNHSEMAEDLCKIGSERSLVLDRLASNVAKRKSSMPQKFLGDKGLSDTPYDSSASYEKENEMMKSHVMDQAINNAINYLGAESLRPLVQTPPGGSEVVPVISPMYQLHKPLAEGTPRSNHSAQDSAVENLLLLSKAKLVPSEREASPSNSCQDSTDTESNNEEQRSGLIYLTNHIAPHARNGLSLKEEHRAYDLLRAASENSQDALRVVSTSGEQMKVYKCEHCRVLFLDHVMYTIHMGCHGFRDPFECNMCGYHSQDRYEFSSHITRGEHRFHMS
# UniProt P30291, whole entry: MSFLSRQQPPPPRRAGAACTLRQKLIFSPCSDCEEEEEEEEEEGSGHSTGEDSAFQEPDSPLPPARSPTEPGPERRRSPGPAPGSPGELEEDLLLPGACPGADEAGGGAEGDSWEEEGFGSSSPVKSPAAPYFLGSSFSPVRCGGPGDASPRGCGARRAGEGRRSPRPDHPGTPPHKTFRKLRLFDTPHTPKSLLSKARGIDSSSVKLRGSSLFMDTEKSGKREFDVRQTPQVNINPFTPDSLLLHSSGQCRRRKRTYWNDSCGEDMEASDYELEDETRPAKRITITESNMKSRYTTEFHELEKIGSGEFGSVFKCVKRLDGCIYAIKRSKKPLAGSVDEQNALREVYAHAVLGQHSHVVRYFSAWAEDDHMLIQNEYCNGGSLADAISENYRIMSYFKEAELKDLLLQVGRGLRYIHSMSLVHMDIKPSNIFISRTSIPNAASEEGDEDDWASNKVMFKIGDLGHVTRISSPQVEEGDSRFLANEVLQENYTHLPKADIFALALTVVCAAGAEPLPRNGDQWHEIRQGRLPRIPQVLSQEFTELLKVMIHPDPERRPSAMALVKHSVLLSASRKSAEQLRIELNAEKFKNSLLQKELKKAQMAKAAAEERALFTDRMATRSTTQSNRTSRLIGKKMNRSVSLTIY
# UniProt Q9UKT9, whole entry: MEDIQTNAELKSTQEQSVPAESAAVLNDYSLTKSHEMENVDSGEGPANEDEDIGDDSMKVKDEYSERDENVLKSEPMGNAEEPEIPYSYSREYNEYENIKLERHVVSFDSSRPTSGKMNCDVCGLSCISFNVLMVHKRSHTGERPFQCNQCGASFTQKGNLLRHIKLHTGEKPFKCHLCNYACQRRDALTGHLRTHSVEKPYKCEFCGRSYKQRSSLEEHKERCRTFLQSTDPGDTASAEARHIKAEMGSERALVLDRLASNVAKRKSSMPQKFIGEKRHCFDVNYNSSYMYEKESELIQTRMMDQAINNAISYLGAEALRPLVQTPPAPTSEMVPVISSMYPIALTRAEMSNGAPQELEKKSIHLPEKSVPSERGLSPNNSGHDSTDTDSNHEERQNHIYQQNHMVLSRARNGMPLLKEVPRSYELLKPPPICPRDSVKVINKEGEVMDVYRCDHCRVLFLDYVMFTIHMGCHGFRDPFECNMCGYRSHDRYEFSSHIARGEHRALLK
# UniProt Q9UKS7, whole entry: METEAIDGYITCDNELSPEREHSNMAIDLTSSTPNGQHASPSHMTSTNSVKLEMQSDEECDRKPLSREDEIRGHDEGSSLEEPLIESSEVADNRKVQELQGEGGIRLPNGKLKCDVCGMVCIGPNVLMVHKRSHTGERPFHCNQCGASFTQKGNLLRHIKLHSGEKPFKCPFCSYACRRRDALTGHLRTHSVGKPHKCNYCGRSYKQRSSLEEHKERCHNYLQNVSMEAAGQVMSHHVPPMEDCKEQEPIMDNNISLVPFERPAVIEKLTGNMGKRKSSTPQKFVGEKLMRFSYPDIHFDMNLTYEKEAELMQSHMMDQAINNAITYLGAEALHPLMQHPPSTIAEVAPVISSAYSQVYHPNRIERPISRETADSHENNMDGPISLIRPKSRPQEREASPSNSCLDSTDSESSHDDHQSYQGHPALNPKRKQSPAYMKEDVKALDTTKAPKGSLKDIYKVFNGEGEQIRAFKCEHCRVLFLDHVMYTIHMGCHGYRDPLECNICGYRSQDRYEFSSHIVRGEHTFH
# UniProt P48729, whole entry: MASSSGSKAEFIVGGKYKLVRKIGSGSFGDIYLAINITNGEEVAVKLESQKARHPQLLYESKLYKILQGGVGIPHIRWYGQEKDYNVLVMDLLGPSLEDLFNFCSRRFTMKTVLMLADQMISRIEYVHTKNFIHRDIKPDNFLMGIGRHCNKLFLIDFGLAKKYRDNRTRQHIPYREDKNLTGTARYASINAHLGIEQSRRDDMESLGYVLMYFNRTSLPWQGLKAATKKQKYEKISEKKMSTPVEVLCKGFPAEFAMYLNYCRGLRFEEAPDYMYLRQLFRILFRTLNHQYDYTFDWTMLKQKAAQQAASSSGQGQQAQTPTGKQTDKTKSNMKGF
# UniProt Q16531, whole entry partner: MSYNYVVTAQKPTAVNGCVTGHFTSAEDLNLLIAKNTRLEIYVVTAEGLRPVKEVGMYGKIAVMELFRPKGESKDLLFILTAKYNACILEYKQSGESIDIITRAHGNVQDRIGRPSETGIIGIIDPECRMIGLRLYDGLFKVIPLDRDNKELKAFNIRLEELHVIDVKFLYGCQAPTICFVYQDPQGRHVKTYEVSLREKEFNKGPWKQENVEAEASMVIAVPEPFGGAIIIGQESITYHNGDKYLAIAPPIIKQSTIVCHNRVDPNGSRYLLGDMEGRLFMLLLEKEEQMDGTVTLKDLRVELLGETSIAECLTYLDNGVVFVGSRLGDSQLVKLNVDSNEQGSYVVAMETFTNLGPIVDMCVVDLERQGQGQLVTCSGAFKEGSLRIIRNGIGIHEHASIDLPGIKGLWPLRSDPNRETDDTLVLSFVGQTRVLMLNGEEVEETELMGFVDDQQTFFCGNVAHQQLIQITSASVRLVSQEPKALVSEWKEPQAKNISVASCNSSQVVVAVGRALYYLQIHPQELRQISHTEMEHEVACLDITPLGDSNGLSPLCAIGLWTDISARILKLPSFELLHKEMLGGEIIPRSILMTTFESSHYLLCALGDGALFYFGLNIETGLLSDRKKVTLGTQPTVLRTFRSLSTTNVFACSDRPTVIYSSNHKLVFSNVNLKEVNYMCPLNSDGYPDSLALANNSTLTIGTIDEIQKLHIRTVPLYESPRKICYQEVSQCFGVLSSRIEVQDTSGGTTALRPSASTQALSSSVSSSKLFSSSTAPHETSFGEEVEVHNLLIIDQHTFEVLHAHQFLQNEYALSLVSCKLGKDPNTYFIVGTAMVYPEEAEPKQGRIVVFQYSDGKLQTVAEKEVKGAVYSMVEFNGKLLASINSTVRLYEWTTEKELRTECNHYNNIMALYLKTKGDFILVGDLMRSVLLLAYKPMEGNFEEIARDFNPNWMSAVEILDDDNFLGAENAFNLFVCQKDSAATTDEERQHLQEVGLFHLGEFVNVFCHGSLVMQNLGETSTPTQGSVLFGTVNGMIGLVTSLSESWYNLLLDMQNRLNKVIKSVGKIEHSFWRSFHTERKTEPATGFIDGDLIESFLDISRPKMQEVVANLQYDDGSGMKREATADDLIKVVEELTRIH
# Target: GSPT1 (Homo sapiens, UniProt P15170+Q96SW2)
# Assay: Western blot assay of substrate protein degradation in hPBMCs
# Conditions: 24 hours treatment, compounds at 50 nM and 500 nM (concentration behind the class not stated)
row,SMILES,substrate protein remaining % (GSPT1)
1,O=C1CCC(N2Cc3cc(CCCN4CCC(N5CC=C(c6cccc(Cl)c6Cl)CC5)C(F)(F)C4)ccc3C2=O)C(=O)N1 (stereo not drawn),A (0% ≤ substrate protein remaining % ≤ 80%)
2,O=C1CCC(N2Cc3cc(C(=O)N4CCC(N5CCC(c6noc7cc(F)ccc67)CC5)C(F)(F)C4)c(F)cc3C2=O)C(=O)N1 (stereo not drawn),A (0% ≤ substrate protein remaining % ≤ 80%)
3,O=C1CCC(N2Cc3c(CN4CCC(N5CC=C(c6cccc(Cl)c6Cl)CC5)C(F)(F)C4)cccc3C2=S)C(=O)N1 (stereo not drawn),A (0% ≤ substrate protein remaining % ≤ 80%)

# Target: IKZF1 (Homo sapiens, UniProt Q13422+Q96SW2)
# Assay: as above
# Conditions: 24 hours treatment, compounds at 50 nM and 500 nM (concentration behind the class not stated)
row,SMILES,substrate protein remaining % (IKZF 1)
1,O=C1CCC(N2Cc3cc(CCCN4CCC(N5CC=C(c6cccc(Cl)c6Cl)CC5)C(F)(F)C4)ccc3C2=O)C(=O)N1 (stereo not drawn),B (80%< substrate protein remaining %≤ 100%)
2,O=C1CCC(N2Cc3cc(C(=O)N4CCC(N5CCC(c6noc7cc(F)ccc67)CC5)C(F)(F)C4)c(F)cc3C2=O)C(=O)N1 (stereo not drawn),B (80%< substrate protein remaining %≤ 100%)
3,O=C1CCC(N2Cc3c(CN4CCC(N5CC=C(c6cccc(Cl)c6Cl)CC5)C(F)(F)C4)cccc3C2=S)C(=O)N1 (stereo not drawn),B (80%< substrate protein remaining %≤ 100%)

# Target: WEE1 (Homo sapiens, UniProt P30291+Q96SW2)
# Assay: as above
# Conditions: 24 hours treatment, compounds at 50 nM and 500 nM (concentration behind the class not stated)
row,SMILES,substrate protein remaining % (WEE1)
1,O=C1CCC(N2Cc3cc(CCCN4CCC(N5CC=C(c6cccc(Cl)c6Cl)CC5)C(F)(F)C4)ccc3C2=O)C(=O)N1 (stereo not drawn),B (80%< substrate protein remaining %≤ 100%)
2,O=C1CCC(N2Cc3cc(C(=O)N4CCC(N5CCC(c6noc7cc(F)ccc67)CC5)C(F)(F)C4)c(F)cc3C2=O)C(=O)N1 (stereo not drawn),A (0% ≤ substrate protein remaining % ≤ 80%)
3,O=C1CCC(N2Cc3c(CN4CCC(N5CC=C(c6cccc(Cl)c6Cl)CC5)C(F)(F)C4)cccc3C2=S)C(=O)N1 (stereo not drawn),A (0% ≤ substrate protein remaining % ≤ 80%)

# Target: IKZF3 (Homo sapiens, UniProt Q96SW2+Q9UKT9)
# Assay: as above
# Conditions: 24 hours treatment, compounds at 50 nM and 500 nM (concentration behind the class not stated)
row,SMILES,substrate protein remaining % (IKZF3)
1,O=C1CCC(N2Cc3cc(CCCN4CCC(N5CC=C(c6cccc(Cl)c6Cl)CC5)C(F)(F)C4)ccc3C2=O)C(=O)N1 (stereo not drawn),B (80%< substrate protein remaining %≤ 100%)
2,O=C1CCC(N2Cc3cc(C(=O)N4CCC(N5CCC(c6noc7cc(F)ccc67)CC5)C(F)(F)C4)c(F)cc3C2=O)C(=O)N1 (stereo not drawn),B (80%< substrate protein remaining %≤ 100%)
3,O=C1CCC(N2Cc3c(CN4CCC(N5CC=C(c6cccc(Cl)c6Cl)CC5)C(F)(F)C4)cccc3C2=S)C(=O)N1 (stereo not drawn),A (0% ≤ substrate protein remaining % ≤ 80%)

# Target: IKZF2 (Homo sapiens, UniProt Q96SW2+Q9UKS7)
# Assay: as above
# Conditions: 24 hours treatment, compounds at 50 nM and 500 nM (concentration behind the class not stated)
row,SMILES,substrate protein remaining % (IKZF2)
1,O=C1CCC(N2Cc3cc(CCCN4CCC(N5CC=C(c6cccc(Cl)c6Cl)CC5)C(F)(F)C4)ccc3C2=O)C(=O)N1 (stereo not drawn),B (80%< substrate protein remaining %≤ 100%)
2,O=C1CCC(N2Cc3cc(C(=O)N4CCC(N5CCC(c6noc7cc(F)ccc67)CC5)C(F)(F)C4)c(F)cc3C2=O)C(=O)N1 (stereo not drawn),B (80%< substrate protein remaining %≤ 100%)
3,O=C1CCC(N2Cc3c(CN4CCC(N5CC=C(c6cccc(Cl)c6Cl)CC5)C(F)(F)C4)cccc3C2=S)C(=O)N1 (stereo not drawn),B (80%< substrate protein remaining %≤ 100%)

# Target: CK1α (Homo sapiens, UniProt P48729+Q96SW2)
# Assay: as above
# Conditions: 24 hours treatment, compounds at 50 nM and 500 nM (concentration behind the class not stated)
row,SMILES,substrate protein remaining % (CK1a)
1,O=C1CCC(N2Cc3cc(CCCN4CCC(N5CC=C(c6cccc(Cl)c6Cl)CC5)C(F)(F)C4)ccc3C2=O)C(=O)N1 (stereo not drawn),B (80%< substrate protein remaining %≤ 100%)
2,O=C1CCC(N2Cc3cc(C(=O)N4CCC(N5CCC(c6noc7cc(F)ccc67)CC5)C(F)(F)C4)c(F)cc3C2=O)C(=O)N1 (stereo not drawn),B (80%< substrate protein remaining %≤ 100%)
3,O=C1CCC(N2Cc3c(CN4CCC(N5CC=C(c6cccc(Cl)c6Cl)CC5)C(F)(F)C4)cccc3C2=S)C(=O)N1 (stereo not drawn),A (0% ≤ substrate protein remaining % ≤ 80%)

# System: Human myeloid monocytic leukemia cell (MV-4-11)
# Assay: Tumor cell proliferation inhibition (cell viability assay)
# Conditions: MV-4-11 cells; 10 nM; 96 hours
row,SMILES,Inhibition Rate at 10 nM (%)
1,O=C1CCC(N2Cc3cc(CCCN4CCC(N5CC=C(c6cccc(Cl)c6Cl)CC5)C(F)(F)C4)ccc3C2=O)C(=O)N1 (stereo not drawn),1a8 (60% ≤ 1a8 < 70%)
2,O=C1CCC(N2Cc3cc(C(=O)N4CCC(N5CCC(c6noc7cc(F)ccc67)CC5)C(F)(F)C4)c(F)cc3C2=O)C(=O)N1 (stereo not drawn),1a7 (50% ≤ 1a7 < 60%)
3,O=C1CCC(N2Cc3c(CN4CCC(N5CC=C(c6cccc(Cl)c6Cl)CC5)C(F)(F)C4)cccc3C2=S)C(=O)N1 (stereo not drawn),1a4 (20% ≤ 1a4 < 30%)

# Same assay, conditions: MV-4-11 cells; 500 nM; 96 hours
row,SMILES,Inhibition Rate at 500 nM (%)
1,O=C1CCC(N2Cc3cc(CCCN4CCC(N5CC=C(c6cccc(Cl)c6Cl)CC5)C(F)(F)C4)ccc3C2=O)C(=O)N1 (stereo not drawn),1a10 (80% ≤ 1a10 < 100%)
2,O=C1CCC(N2Cc3cc(C(=O)N4CCC(N5CCC(c6noc7cc(F)ccc67)CC5)C(F)(F)C4)c(F)cc3C2=O)C(=O)N1 (stereo not drawn),1a10 (80% ≤ 1a10 < 100%)
3,O=C1CCC(N2Cc3c(CN4CCC(N5CC=C(c6cccc(Cl)c6Cl)CC5)C(F)(F)C4)cccc3C2=S)C(=O)N1 (stereo not drawn),1a10 (80% ≤ 1a10 < 100%)

# System: Human acute T lymphocytic leukemia cell (Molt4)
# Assay: as above
# Conditions: Molt4 cells; 10 nM; 96 hours
row,SMILES,Inhibition Rate at 10 nM (%)
1,O=C1CCC(N2Cc3cc(CCCN4CCC(N5CC=C(c6cccc(Cl)c6Cl)CC5)C(F)(F)C4)ccc3C2=O)C(=O)N1 (stereo not drawn),1c8 (50% ≤ 1c8 < 60%)
2,O=C1CCC(N2Cc3cc(C(=O)N4CCC(N5CCC(c6noc7cc(F)ccc67)CC5)C(F)(F)C4)c(F)cc3C2=O)C(=O)N1 (stereo not drawn),1c4 (10% ≤ 1c4 < 20%)
3,O=C1CCC(N2Cc3c(CN4CCC(N5CC=C(c6cccc(Cl)c6Cl)CC5)C(F)(F)C4)cccc3C2=S)C(=O)N1 (stereo not drawn),1c3 (5% ≤ 1c3 < 10%)

# Same assay, conditions: Molt4 cells; 500 nM; 96 hours
row,SMILES,Inhibition Rate at 500 nM (%)
1,O=C1CCC(N2Cc3cc(CCCN4CCC(N5CC=C(c6cccc(Cl)c6Cl)CC5)C(F)(F)C4)ccc3C2=O)C(=O)N1 (stereo not drawn),1c11 (80% ≤ 1c11 ≤ 100%)
2,O=C1CCC(N2Cc3cc(C(=O)N4CCC(N5CCC(c6noc7cc(F)ccc67)CC5)C(F)(F)C4)c(F)cc3C2=O)C(=O)N1 (stereo not drawn),1c9 (60% ≤ 1c9 < 70%)
3,O=C1CCC(N2Cc3c(CN4CCC(N5CC=C(c6cccc(Cl)c6Cl)CC5)C(F)(F)C4)cccc3C2=S)C(=O)N1 (stereo not drawn),1c8 (50% ≤ 1c8 < 60%)

# System: Human colon cancer cell (SW620)
# Assay: as above
# Conditions: SW620 cells; 10 nM; 96 hours
row,SMILES,Inhibition Rate at 10 nM (%)
1,O=C1CCC(N2Cc3cc(CCCN4CCC(N5CC=C(c6cccc(Cl)c6Cl)CC5)C(F)(F)C4)ccc3C2=O)C(=O)N1 (stereo not drawn),1d5 (30% ≤ 1d5 < 40%)
2,O=C1CCC(N2Cc3c(CN4CCC(N5CC=C(c6cccc(Cl)c6Cl)CC5)C(F)(F)C4)cccc3C2=S)C(=O)N1 (stereo not drawn),1d3 (10% ≤ 1d3 < 20%)

# Same assay, conditions: SW620 cells; 500 nM; 96 hours
row,SMILES,Inhibition Rate at 500 nM (%)
1,O=C1CCC(N2Cc3cc(CCCN4CCC(N5CC=C(c6cccc(Cl)c6Cl)CC5)C(F)(F)C4)ccc3C2=O)C(=O)N1 (stereo not drawn),1d6 (40% ≤ 1d6 < 50%)
2,O=C1CCC(N2Cc3c(CN4CCC(N5CC=C(c6cccc(Cl)c6Cl)CC5)C(F)(F)C4)cccc3C2=S)C(=O)N1 (stereo not drawn),1d6 (40% ≤ 1d6 < 50%)

# System: Human multiple myeloma cell (MM.1S)
# Assay: as above
# Conditions: MM.1S cells; 10 nM; 96 hours
row,SMILES,Inhibition Rate at 10 nM (%)
1,O=C1CCC(N2Cc3cc(CCCN4CCC(N5CC=C(c6cccc(Cl)c6Cl)CC5)C(F)(F)C4)ccc3C2=O)C(=O)N1 (stereo not drawn),1b8 (60% ≤ 1b8 < 70%)

# Same assay, conditions: MM.1S cells; 500 nM; 96 hours
row,SMILES,Inhibition Rate at 500 nM (%)
1,O=C1CCC(N2Cc3cc(CCCN4CCC(N5CC=C(c6cccc(Cl)c6Cl)CC5)C(F)(F)C4)ccc3C2=O)C(=O)N1 (stereo not drawn),1b10 (80% ≤ 1b10 ≤ 100%)

# Target: CRBN (Homo sapiens, UniProt Q96SW2)
# Assay: CRBN binding affinity by HTRF (CEREBLON BINDING kit)
# Conditions: CRBN binding, HTRF, compound at 0.5 µM
row,SMILES,Inhibition Rate at 0.5 µM (%)
1,O=C1CCC(N2Cc3cc(CCCN4CCC(N5CC=C(c6cccc(Cl)c6Cl)CC5)C(F)(F)C4)ccc3C2=O)C(=O)N1 (stereo not drawn),a5 (53% < a5 ≤ 60%)
2,O=C1CCC(N2Cc3cc(C(=O)N4CCC(N5CCC(c6noc7cc(F)ccc67)CC5)C(F)(F)C4)c(F)cc3C2=O)C(=O)N1 (stereo not drawn),a4 (40% < a4 ≤ 53%)
3,O=C1CCC(N2Cc3c(CN4CCC(N5CC=C(c6cccc(Cl)c6Cl)CC5)C(F)(F)C4)cccc3C2=S)C(=O)N1 (stereo not drawn),a4 (40% < a4 ≤ 53%)

# Same assay, conditions: CRBN binding, HTRF, compound at 2 µM
row,SMILES,Inhibition Rate at 2 µM (%)
1,O=C1CCC(N2Cc3cc(CCCN4CCC(N5CC=C(c6cccc(Cl)c6Cl)CC5)C(F)(F)C4)ccc3C2=O)C(=O)N1 (stereo not drawn),a7 (70% < a7 ≤80%)
2,O=C1CCC(N2Cc3cc(C(=O)N4CCC(N5CCC(c6noc7cc(F)ccc67)CC5)C(F)(F)C4)c(F)cc3C2=O)C(=O)N1 (stereo not drawn),a8 (80% < a8 ≤100%)
3,O=C1CCC(N2Cc3c(CN4CCC(N5CC=C(c6cccc(Cl)c6Cl)CC5)C(F)(F)C4)cccc3C2=S)C(=O)N1 (stereo not drawn),a7 (70% < a7 ≤80%)
